Assay results reported in ChEMBL document CHEMBL3862041, “Discovery of Novel Bruton's Tyrosine Kinase (BTK) Inhibitors Bearing a N,9-Diphenyl-9H-purin-2-amine Scaffold” (ACS Med Chem Lett, 2016).

Protein sequences, listed by entry. Tags and fused reporters are not part of them. Lines headed by an entry give the natural chain unless they say otherwise; changes in a name come on top.
UniProt Q06187: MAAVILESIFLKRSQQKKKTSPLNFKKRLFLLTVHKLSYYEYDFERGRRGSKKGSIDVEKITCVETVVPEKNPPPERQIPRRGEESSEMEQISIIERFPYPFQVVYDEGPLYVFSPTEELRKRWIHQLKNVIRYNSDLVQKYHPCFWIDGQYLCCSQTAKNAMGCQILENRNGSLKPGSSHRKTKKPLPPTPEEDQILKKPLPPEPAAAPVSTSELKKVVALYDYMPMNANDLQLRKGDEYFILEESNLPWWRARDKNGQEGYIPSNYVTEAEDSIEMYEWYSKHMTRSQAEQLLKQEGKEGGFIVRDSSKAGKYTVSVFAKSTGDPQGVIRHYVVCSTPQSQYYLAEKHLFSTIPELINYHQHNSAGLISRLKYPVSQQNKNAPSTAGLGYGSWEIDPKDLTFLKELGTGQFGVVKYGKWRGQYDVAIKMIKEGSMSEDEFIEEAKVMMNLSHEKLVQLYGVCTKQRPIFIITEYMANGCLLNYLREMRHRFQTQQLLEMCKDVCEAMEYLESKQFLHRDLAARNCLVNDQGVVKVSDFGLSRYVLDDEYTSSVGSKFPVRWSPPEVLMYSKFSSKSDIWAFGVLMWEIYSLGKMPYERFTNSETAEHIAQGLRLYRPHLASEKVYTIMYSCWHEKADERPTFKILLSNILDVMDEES

Target: Tyrosine-protein kinase BTK (Homo sapiens, UniProt Q06187)
Experiment: Inhibition of recombinant human N-terminal His-tagged BTK expressed in baculovirus infected sf9 cells using poly(4:1 Glu,Tyr) as substrate by ADP-Glo kinase assay

IC50: 600 pM
Compound: C=CC(=O)Nc1cccc(Nc2nc(Nc3ccc(OCCOC)cc3)ncc2F)c1 [SPEBRUTINIB]
